The experiment addresses N-terminally GST-tagged human full length recombinant Mps-1 kinase (Homo sapiens, UniProt P33981). Kind of experiment: Mps-1 kinase assay (TR-FRET). Conditions: read-out: Mps1 IC50, 10 μM ATP, 1 μM peptide substrate, 60 min at 22° C. Type of experiment: biochemical. In general terms: TR-FRET usually uses a lanthanide donor and a delayed reading to cut background.

By UniProt entry, the sequences of proteins in these tests, tags left out.
UniProt P33981, whole entry: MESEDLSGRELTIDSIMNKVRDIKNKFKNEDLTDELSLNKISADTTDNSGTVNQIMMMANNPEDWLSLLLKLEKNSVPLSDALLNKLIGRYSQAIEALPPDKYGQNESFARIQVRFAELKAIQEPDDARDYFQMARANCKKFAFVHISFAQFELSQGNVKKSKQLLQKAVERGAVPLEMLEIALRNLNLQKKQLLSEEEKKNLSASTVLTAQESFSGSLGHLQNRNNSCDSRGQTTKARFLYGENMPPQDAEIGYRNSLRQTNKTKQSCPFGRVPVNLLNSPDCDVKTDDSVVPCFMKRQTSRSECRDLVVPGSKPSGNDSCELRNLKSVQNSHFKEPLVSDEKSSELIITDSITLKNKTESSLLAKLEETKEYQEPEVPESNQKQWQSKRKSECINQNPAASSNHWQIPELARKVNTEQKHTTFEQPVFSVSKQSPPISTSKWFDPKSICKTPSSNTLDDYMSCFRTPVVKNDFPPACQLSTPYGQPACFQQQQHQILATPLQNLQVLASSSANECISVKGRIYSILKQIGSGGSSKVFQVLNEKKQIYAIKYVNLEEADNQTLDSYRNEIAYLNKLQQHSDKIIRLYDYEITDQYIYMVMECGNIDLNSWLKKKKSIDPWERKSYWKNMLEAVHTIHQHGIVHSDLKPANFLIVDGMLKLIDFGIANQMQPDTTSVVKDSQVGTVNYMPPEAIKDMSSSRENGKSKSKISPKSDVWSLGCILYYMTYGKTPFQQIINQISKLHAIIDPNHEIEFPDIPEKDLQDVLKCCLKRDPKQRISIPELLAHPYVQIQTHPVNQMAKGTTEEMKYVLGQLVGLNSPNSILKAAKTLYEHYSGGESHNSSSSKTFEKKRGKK

For `Cc1cc(-c2cnc3c(NCC4CCSCC4)cc(Oc4cccnc4)nn23)ccc1C(=O)NC1CC1`, the concentration for half-maximal inhibition (IC50) (usually the midpoint of a concentration-inhibition curve) amounted to 0.1 nM.

These data come from patent publication US9255100B2 (BAYER INTELLECTUAL PROPERTY GMBH, priority 2010, dated 2016).
